These results are taken from ChEMBL document CHEMBL1641500, “Carbonic anhydrase inhibitors. Inhibition studies with anions and sulfonamides of a new cytosolic enzyme from the scleractinian coral Stylophora pistillata” (Bioorg Med Chem Lett, 2011).

This assay addresses Carbonic anhydrase 6 (Homo sapiens, UniProt P23280).

As usually defined, the Ki is the equilibrium dissociation constant of an inhibitor or competing ligand from its target. Low values mean tighter binding, high ones weaker binding. On to `[N-]=[N+]=N`, for which the inhibition constant Ki was 70 µM.
